species: Homo sapiens; assay: Selectivity ratio of IC50 for human CYP11B1 to IC50 for human CYP11B2
Outline: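 Ratio of IC50 values from V79 MZh cell assays for human CYP11B1 and CYP11B2, IC50 CYP11B1/IC50 CYP11B2. Both assays used [4-14C]-11-deoxycorticosterone, 100 nM, inhibitor at ≥3 concentrations and HPTLC/phosphoimager readout of conversion.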

SMILES	Ratio IC50
O=C1CCc2cc(-c3cncc(F)c3)cc3c2N1CC3	293
COc1ccccc1-c1cncc(-c2cc3c4c(c2)CCN4C(=O)CC3)c1	53
O=C1CCc2cc(-c3cncc(-c4cccc(C(F)(F)F)c4)c3)cc3c2N1CC3	141
O=C1CCc2cc(-c3cncc(-c4ccc(F)cc4)c3)cc3c2N1CC3	44
O=C1CCc2cc(-c3cncc(-c4cccc(OC(F)(F)F)c4)c3)cc3c2N1CC3	129
O=C1CCc2cc(-c3cncc(-c4cc(F)ccc4F)c3)cc3c2N1CC3	51
O=C1CCc2cc(-c3cncc(-c4cccc(O)c4)c3)cc3c2N1CC3	37
CC(C)Oc1cncc(-c2cc3c4c(c2)CCN4C(=O)CC3)c1	47
O=C1CCc2cc(-c3cncc(-c4ccc(F)c(F)c4)c3)cc3c2N1CC3	215
O=C1CCc2cc(-c3cncnc3)cc3c2N1CC3	510
S=C1CCc2cc(-c3cccnc3)cc3c2N1CC3	278
COc1ccc(-c2cncc(-c3cc4c5c(c3)CCN5C(=O)CC4)c2)cc1	15
O=C1CCc2cc(-c3cncc(C(F)(F)F)c3)cc3c2N1CC3	24
O=C1CCc2cc(-c3cncc(O)c3)cc3c2N1CC3	476
O=C1CCc2cc(-c3cncc(-c4cccc(F)c4)c3)cc3c2N1CC3	350
O=C1CCc2cc(-c3cccnc3)cc3c2N1CCC3	957
O=C1CCc2cc(-c3cncc4ccccc34)cc3c2N1CC3	65
COc1cncc(-c2cc3c4c(c2)CCN4C(=O)CC3)c1	412
O=C1CCc2cc(-n3ccnc3)cc3c2N1CC3	23
O=C1CCc2cc(-c3cncc(-c4cc(F)cc(F)c4)c3)cc3c2N1CC3	97
COc1cncc(-c2cc3c4c(c2)CCC(=O)N4CCC3)c1	606
